Data published in ChEMBL document CHEMBL1157489, “Identification of novel non-peptide CXCR4 antagonists by ligand-based design approach” (Bioorg Med Chem Lett, 2008).

Chains of the proteins cited; added tags and fusions are not shown.
UniProt P61073, whole entry: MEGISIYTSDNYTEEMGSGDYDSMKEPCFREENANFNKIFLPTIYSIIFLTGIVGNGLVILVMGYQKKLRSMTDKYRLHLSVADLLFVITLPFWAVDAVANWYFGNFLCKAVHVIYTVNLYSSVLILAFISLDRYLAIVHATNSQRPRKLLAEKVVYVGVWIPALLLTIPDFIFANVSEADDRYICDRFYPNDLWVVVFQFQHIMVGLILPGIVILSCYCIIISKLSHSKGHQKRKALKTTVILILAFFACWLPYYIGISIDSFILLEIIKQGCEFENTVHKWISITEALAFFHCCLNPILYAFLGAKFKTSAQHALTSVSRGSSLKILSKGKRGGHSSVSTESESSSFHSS

Molecular target: C-X-C chemokine receptor type 4 (Homo sapiens, UniProt P61073)
Assay: Displacement of [125I]SDF1 from human CXCR4 expressed in CHO cells
Format: cell-based

IC50: 35 nM
SMILES: N=C(N)NCCC[C@@H]1NC(=O)[C@H](CCCNC(=N)N)NC(=O)[C@@H](Cc2ccc(O)cc2)NC(=O)CNC(=O)[C@H](Cc2ccc3ccccc3c2)NC1=O
